Assay results taken from patent publication US20170298395A1, “AUTOTROPHIC HYDROGEN BACTERIA AND USES THEREOF” (Ohio State Innovation Foundation, priority 2011, published 2017).

Tested on: Rhodobacter capsulatus
Details: reversible toxicity

**Q.** Which “butanol tolerated before growth was affected” value does the source give for n-butanol here?
**A.** about 0.8%
